The entries are a selection whose mix differs from that of the whole data set. Results filed as inconclusive are left out. Activity calls are given as the source filed them. The call rests on the fitted dose curve; in most records, active means well fitted inhibition curve with a large enough effect; inconclusive means small, poorly fitted or top-dose-only effect, or effect the other way; inactive means no such curve, though single readings can be large or run the other way.
On the % scale 0 is the no-effect control and ±100 the full control effect.

The chains behind the UniProt entries cited, without tags or fusion partners.
UniProt P51450, whole entry: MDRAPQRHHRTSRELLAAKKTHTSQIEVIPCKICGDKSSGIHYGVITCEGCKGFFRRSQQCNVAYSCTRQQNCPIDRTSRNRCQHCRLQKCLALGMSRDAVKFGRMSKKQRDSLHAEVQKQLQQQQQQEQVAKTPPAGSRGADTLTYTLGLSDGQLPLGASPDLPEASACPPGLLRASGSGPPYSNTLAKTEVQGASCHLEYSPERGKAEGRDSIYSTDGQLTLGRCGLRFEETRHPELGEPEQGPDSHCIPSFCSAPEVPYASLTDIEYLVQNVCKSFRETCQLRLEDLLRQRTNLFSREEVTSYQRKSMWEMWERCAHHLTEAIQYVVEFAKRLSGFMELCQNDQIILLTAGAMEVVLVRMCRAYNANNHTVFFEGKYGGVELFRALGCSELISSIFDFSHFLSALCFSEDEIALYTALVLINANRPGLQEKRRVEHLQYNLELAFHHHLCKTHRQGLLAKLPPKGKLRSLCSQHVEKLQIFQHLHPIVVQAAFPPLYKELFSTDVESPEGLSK

The assay deals with Nuclear receptor ROR-gamma (Mus musculus) (UniProt P51450). In words: qHTS for inhibitors of ROR gamma transcriptional activity. Further: nearly all actives have a fitted effect of over 60% in size. To be noted: Drosophila S2 Gal4-RORgamma UAS-luciferase reporter, 20 h; at 53.6 µM (top of the series). For orientation: qHTS replaces the single test concentration by a dilution series.
In the case of `CC(C)(C)C(=O)NC(Sc1ccccc1)C(Cl)(Cl)Cl` (configuration not stated), the activity change, negative = inhibition is inactive: -2.1%.
On to `CN(N=O)C(=N)N[N+](=O)[O-]`, for which the activity change, negative = inhibition is inactive: -24.3%.

For the origin of these results see PubChem BioAssay AID2551 (National Center for Advancing Translational Sciences (NCATS), 2010).
